From PubChem BioAssay AID652083 (The Scripps Research Institute Molecular Screening Center, 2013) come the findings set out here.

The assay concerns Na+ channel (site 2). Description: PubChem AID 652083. The following applies: CEREP radioligand binding panel, % inhibition at 10 uM, stronger effect = higher value.

This is one part of the list. Calls of active or inactive are those of the source.

Consider `COC(=O)c1cc(Br)cnc1N1CCC(NC2CCCCC2)C(O)C1` (stereo unspecified), for which the inhibition of specific binding was active: 67%.
